# Data: PubChem BioAssay AID2241 (Broad Institute, 2010)
# The list shows a part of the results, in another mix than the full data. Activity calls are given as the source filed them.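 The calls were made as follows: active = most replicate scores above 10, or exactly half above 10 with mean activity above 10; inconclusive = mean activity below 10 while half the replicates exceed 10; inactive = most replicate scores below 10.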
# Experiment: caspase activation in A1-primed MEFs – cell-based, CaspaseGlo luminescence, A1 inhibitor project, primary screen (AID 2241);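 also: effector caspase 3 and 7 activity cleaving a DEVD luciferin substrate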
# Details: MEF A1-2A-BIM cells, caspase-Glo luminescence, 3 h; hits give high values; percent of clofoctol signal, DMSO as zero; concentration not given here
row,Compound,caspase activation
1,CC(C)(C)OC(=O)N1CCC(Nc2ccc(OC(F)(F)F)cc2)CC1,inactive: 1.3%
2,FC(F)(F)Oc1ccc(NC2CCNCC2)cc1,inactive: -0.436%
